# Literature values, collected in patent US20090012326A1 (priority 2006, published 2009).
# Tested on: plasma proteins, specially albumin
# Details: cited from earlier work
smiles,measurement,value
"O=C([O-])c1ccccc1O.[Na+] [sodium salicylate, 2-hydroxybenzoic acid sodium salt]",circulating salicylate bound to plasma proteins,more than 80%
